From ChEMBL document CHEMBL1144964, “Inhibition of mandelate racemase by alpha-fluorobenzylphosphonates” (Bioorg Med Chem Lett, 2003) come the findings set out here.

Experiment [1] deals with Pseudomonas putida. As to the kind of experiment: Michaelis-Menten constant for the compound was determined at pH 6.3 for mandelate racemase from Pseudomonas putida.
Experiment [2] deals with Pseudomonas putida. Description: Michaelis-Menten Km value for the compound towards enzyme affinity for the substrate was determined at pH 7.5.

Take `O=P(O)(O)C(F)(F)c1ccccc1`: the Km – broadly, the concentration of substrate that gives half-maximal velocity – in experiment [1] stood at 790 µM.
In the case of `O=P(O)(O)[C@H](F)c1ccccc1`, the Km in experiment [2] was found to be 930 µM.
